Our source for the Kd and pKapp (negative logarithm of the apparent dissociation constant) values is publication PMC9770967, “Native holdup (nHU) to measure binding affinities from cell extracts” (Science Advances, 2022).

Assay [1] addresses recombinant full-length SNX27 (1-541) fused to an N-terminal biotinylated-MBP and C-terminal His6 tag (UniProt Q96L92). Briefly: other; printed as pKapp 4.93.
Assay [2] concerns the target biotinylated PDZ-binding motif (PBM) peptide of diacylglycerol kinase zeta (DGKZ). Briefly: native holdup (nHU) with Western blot; titration; biotinylated DGKZ PBM peptide on streptavidin resin as bait, mixed with biotin-saturated control resin at constant resin/analyte ratio; total Jurkat extract (2 mg/ml) as analyte; 4°C, 2 hours; prey depletion in the supernatant read by Western blot; apparent constants; three replicates. In general terms: A western blot detects proteins with antibodies after separation by electrophoresis.

Take VPS35: the Kd in assay [1] turned out to be 11.7 µM.
For the substance “full-length SNX27 endogenously present in Jurkat extract (from UniProt Q96L92 1-541) (natural protein)”, in assay [2], the pKapp (negative logarithm of the apparent dissociation constant) was determined as 6.4 pKapp.

For orientation: Kd means a measure of binding affinity in units of concentration.
